The subject of series [1] is HepG2 human hepatoma cells.
The conditions of series [2]: 50 µM substrate, 20 min; ND = below detection limit ~0.1 pmol/min/mg protein.
Series [3] can be described thus: Sulfating activity of human lung S9 fraction. The following applies: 50 µM substrate, 20 min; ND = below detection limit ~0.1 pmol/min/mg protein.
The nature of series [4]: Sulfating activity of human kidney S9 fraction. The following applies: 50 µM substrate, 20 min; ND = below detection limit ~0.1 pmol/min/mg protein.
A short description of series [5]: Sulfating activity of human small intestine S9 fraction. The following applies: 50 µM substrate, 20 min; ND = below detection limit ~0.1 pmol/min/mg protein.

In the case of `CN1CC[C@]23c4c5ccc(O)c4O[C@H]2C(=O)CC[C@H]3[C@H]1C5` [Hydromorphone, hydromorphone], in series [1], the “Efficiency of sulfation by HepG2 cells relative to the other three opioid drugs” value was “more efficiently”. The “Specific activity, Liver” value in series [2] was determined as 7.1 ± 1.1 pmol/min/mg. For the same compound, the “Specific activity, Lung” value in series [3] stood at 6.3 ± 0.2 pmol/min/mg. Further, in series [4], the “Specific activity, Kidney” value is 3.2 ± 0.5 pmol/min/mg. The “Specific activity, Small Intestine” value in series [5] stood at 40.0 ± 0.7 pmol/min/mg.

The values above are taken from publication PMC4459640 (European journal of pharmaceutical sciences : official …, 2014).
